Data reported in ChEMBL document CHEMBL1143520, “Bicyclic amidine inhibitors of nitric oxide synthase: discovery of perhydro-iminopyrindine and perhydro-iminoquinoline as potent, orally active inhibitors of inducible nitric oxide synthase” (Bioorg Med Chem Lett, 2005).

Molecular target: T1, Nitric oxide synthase 3 (Homo sapiens, UniProt P29474)
T1 sequence (P29474 whole entry): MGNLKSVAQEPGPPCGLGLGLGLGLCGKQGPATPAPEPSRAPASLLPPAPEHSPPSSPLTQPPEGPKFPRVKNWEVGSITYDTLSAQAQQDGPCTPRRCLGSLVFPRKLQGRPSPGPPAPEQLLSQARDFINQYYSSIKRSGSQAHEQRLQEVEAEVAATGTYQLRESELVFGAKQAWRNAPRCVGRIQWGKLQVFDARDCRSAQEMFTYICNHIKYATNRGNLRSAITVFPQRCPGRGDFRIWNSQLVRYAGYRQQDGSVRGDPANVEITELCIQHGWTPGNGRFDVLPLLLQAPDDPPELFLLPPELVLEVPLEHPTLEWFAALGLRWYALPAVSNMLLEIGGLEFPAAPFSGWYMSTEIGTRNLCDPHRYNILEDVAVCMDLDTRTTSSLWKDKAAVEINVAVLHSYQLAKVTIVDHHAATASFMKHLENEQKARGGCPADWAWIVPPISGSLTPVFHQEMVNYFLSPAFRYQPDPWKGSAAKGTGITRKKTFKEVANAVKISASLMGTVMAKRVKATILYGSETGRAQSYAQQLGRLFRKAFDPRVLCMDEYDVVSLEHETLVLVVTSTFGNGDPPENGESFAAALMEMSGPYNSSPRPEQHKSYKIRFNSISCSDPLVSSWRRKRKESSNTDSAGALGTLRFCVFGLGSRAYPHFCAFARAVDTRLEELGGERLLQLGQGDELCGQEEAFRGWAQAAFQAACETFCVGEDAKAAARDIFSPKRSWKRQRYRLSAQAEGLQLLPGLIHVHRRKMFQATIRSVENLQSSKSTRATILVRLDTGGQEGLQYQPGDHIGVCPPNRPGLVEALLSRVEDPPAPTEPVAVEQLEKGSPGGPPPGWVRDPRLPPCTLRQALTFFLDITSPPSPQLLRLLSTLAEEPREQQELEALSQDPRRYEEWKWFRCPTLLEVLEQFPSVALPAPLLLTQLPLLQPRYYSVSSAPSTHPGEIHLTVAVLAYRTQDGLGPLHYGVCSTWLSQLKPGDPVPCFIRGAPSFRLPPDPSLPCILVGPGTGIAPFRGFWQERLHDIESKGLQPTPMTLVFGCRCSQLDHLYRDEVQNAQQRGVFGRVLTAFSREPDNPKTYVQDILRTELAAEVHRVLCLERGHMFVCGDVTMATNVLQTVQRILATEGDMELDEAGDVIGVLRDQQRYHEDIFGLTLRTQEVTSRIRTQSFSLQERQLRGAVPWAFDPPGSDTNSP
Experiment: Inhibitory activity against human Endothelial nitric oxide synthase (eNOS)

`CC1CC(N)=Nc2ccccc21` (stereo unspecified) showed an IC50 of 15.3 µM.
